# Ab-14 light chain CDR variants: yeast mating affinities

Data: MIT Lincoln Laboratory AlphaSeq set, Li et al. 2023, doi:10.1038/s41467-023-39022-2, as distributed in FLAb.

Target: peptide PDVDLGDISGINAS, taken from heptad repeat 2 (HR2) of SARS-CoV-2 spike.

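The starting antibody came from a phage panning campaign against this peptide. The variants were designed computationally from a first round of random CDR variants and then made and measured. Their group label is 14L_GP_Gibbs (GP: Gaussian process model; Gibbs: Gibbs sampling; a sequence that several methods proposed may carry one label only). Affinity was read by AlphaSeq, a pooled yeast mating assay with surface-displayed partners. After mating in shaken culture at 30 °C for 16 h, diploids were selected and their barcode pairs sequenced. Each replicate has its own calibration line, from reference interactions of the BCL2 family. Each pool was mated in six replicate cultures.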

Parent scFv Ab-14: VH joined to VL by the linker GGGGSGGGGSGGGGS. Changes lie in the light chain CDRs alone.
VH: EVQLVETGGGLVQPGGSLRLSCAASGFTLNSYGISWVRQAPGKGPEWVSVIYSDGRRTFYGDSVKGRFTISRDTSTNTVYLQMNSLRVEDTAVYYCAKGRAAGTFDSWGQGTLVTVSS
VL: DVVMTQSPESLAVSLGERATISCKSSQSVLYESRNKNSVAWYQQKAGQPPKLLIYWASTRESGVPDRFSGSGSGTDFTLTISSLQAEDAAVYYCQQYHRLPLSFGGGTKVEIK

Positions count from residue 1 of the parent VL; S25M puts M in place of S. Numbers give log10(Kd / nM), so 0 is 1 nM and 3 is 1 µM. Smaller is tighter. "n.d." means that the variant was in the library but no mating with the target was seen in that replicate; the authors take this as a sign of poor binding, and no number exists.

changes	log10 Kd, replicates	signal with controls
S25M/S28E/V29A/L30M/Y31M/E32L/K36W/W56Q/S62Q	0.17 0.04 0.10 -0.06 -0.03 0.27	1 of 18 (3.08)
S25M/E32Q/K36S/S38A/W56Q/T59Q	0.36 0.14 0.08 -0.02 -0.09 0.23	1 of 18 (2.20)
S25L/S28L/V29M/W56E/E61L/Q96D	0.06 0.01 -0.05 -0.19 -0.15 -0.03	0 of 18
S25C/S26Y/V29Q/L30D/S38A/W56N/T59Q	-0.31 -0.22 -0.27 -0.44 -0.34 -0.10	0 of 18
S25I/S26D/V29E/Y31E/W56N/S58T/T59V/S62Y	0.59 0.54 0.16 0.32 0.49 0.53	1 of 18 (2.04)
K24Y/S25L/W56N/S62Y/S103M	0.08 -0.05 0.02 -0.27 -0.05 -0.04	2 of 18 (3.83)
S25L/Q27E/R34Q/K36A/S38N/W56D/E61M	-0.13 -0.55 -0.51 -0.42 -0.43 0.08	0 of 18
S25V/S26Q/V29E/L30W/Y31G/E32L/W56N/T59K	0.77 0.78 0.66 0.54 0.69 0.85	2 of 18 (2.05)
S25I/S26Q/L30Y/S33D/R34L/W56S/E61C	0.35 0.50 0.37 0.07 0.20 0.48	1 of 18 (2.52)
S25L/S26M/Q27A/S28L/V29G/L30D/S38N/W56Q/T59Q/S62Q	-0.50 -0.45 -0.53 -0.58 -0.67 -0.45	1 of 18 (2.98)
S25L/Q27G/L30C/Y31M/E32L/K36D/W56D	0.81 0.64 0.65 0.88 1.59 1.06	1 of 18 (1.79)
V29D/Y31Q/K36Q/W56E/S62A	0.47 -0.13 -0.13 -0.31 0.10 0.22	0 of 18
S26A/V29D/Y31M/K36F/W56D	-0.06 -0.29 -0.30 -0.28 -0.43 -0.02	1 of 18 (3.13)
S25L/Q27C/V29C/R34A/W56N/E61L	0.24 -0.04 -0.05 -0.12 -0.02 0.23	0 of 18
S25A/S26R/V29E/K36Q/W56N/T59Q/E61L/S62E	0.25 -0.04 0.07 0.07 -0.16 0.30	2 of 18 (2.77)
S25L/S26D/Q27G/V29D/L30N/W56E/Q96A	0.63 0.45 0.54 0.48 0.56 0.58	2 of 18 (1.98)
S25V/V29G/E32G/N37W/W56N/S103Q	1.19 0.50 1.40 0.61 0.68 0.90	1 of 18 (2.38)
S25I/S26E/Q27G/V29M/V39I/W56N/S62V	-0.15 -0.09 -0.32 -0.39 -0.53 -0.17	0 of 18
S25V/V29C/Y31G/W56N/S62K	0.15 -0.24 0.40 0.04 0.29 0.83	0 of 18
S25L/V29W/R34A/K36S/W56H/T59Q/S62D	0.53 0.22 0.71 0.19 0.35 0.36	1 of 18 (2.70)
S25L/S26P/V29A/L30E/E32M/W56S	-0.11 -0.08 -0.12 -0.08 0.16 -0.13	1 of 18 (1.81)
S25V/S26Q/S28M/V29W/E32G/K36C/W56N/T59Q/S62E	0.54 0.42 0.19 0.32 0.31 0.40	3 of 18 (2.28)
S25L/V29M/L30G/S33E/W56N/T59Q/E61M	-0.05 -0.23 -0.32 -0.42 -0.42 -0.18	0 of 18
S25Q/S26E/Q27I/Y31Q/K36C/W56N/S62V	n.d. n.d. n.d. n.d. n.d. n.d.	0 of 18
S25L/S26Q/Q27M/V29H/L30G/N35M/W56H/T59Q/S62E	0.65 0.19 0.60 0.41 0.56 0.48	1 of 18 (2.96)
S25Y/V29H/L30G/Y31G/S33E/W56H/T59L/S62E	1.56 1.13 n.d. 1.19 1.97 1.71	0 of 18
Y31Q/K36Q/W56E/S62A	0.37 0.34 0.37 0.04 0.14 0.38	0 of 18
S25L/Q27F/E32G/S33K/W56Q/T59Q/E61C	0.11 -0.04 -0.13 -0.34 -0.27 -0.04	0 of 18
S25L/V29Y/L30E/W56N/T59Q/S62C	0.15 0.19 -0.14 -0.22 0.05 0.32	2 of 18 (2.90)
S25A/S26Q/V29E/L30G/E32G/S33E/K36S/W56E	0.36 0.43 0.25 0.27 0.21 0.45	2 of 18 (2.61)
S25L/S26P/V29A/L30E/E32Q/W56S	-0.21 -0.13 0.09 -0.22 -0.14 -0.40	1 of 18 (2.21)
K24H/S25M/V29W/Y31M/K36S/W56D/E61L	0.09 0.04 -0.11 -0.09 -0.12 0.03	1 of 18 (2.86)
S25H/S26E/Q27E/S28G/L30W/W56N/E61L	-0.38 -0.15 -0.09 -0.33 -0.20 0.04	1 of 18 (2.07)
S25V/V29N/L30G/N35M/K36F/W56N/T59Q	-0.19 -0.34 -0.21 -0.51 -0.31 0.14	0 of 18
S25M/S28E/L30W/W56E/T59L/S62Q	-0.14 -0.01 -0.40 -0.32 -0.34 -0.13	2 of 18 (3.29)
S25F/V29E/L30D/N37W/W56N/S58Q/E61M	0.33 0.18 0.13 0.01 0.16 0.32	2 of 18 (2.98)
K24I/S25L/V29M/W56N/T59Q/E61W	0.60 -0.41 -0.40 -0.15 0.05 -0.27	1 of 18 (1.16)
S25F/Q27G/S28E/V29M/W56H/T59L/Q96D/S103Q	0.16 0.21 -0.13 -0.04 0.12 0.23	0 of 18
S25L/S26D/V29F/W56E/T59E/S103Y	0.09 -0.25 -0.10 -0.03 -0.28 -0.08	3 of 18 (2.26)
S25L/L30E/S33A/N35D/W56D/E61M	0.13 0.16 -0.09 -0.17 0.11 0.23	0 of 18
S25M/S28E/L30D/Y31L/K36D/W56M/T59C/S62D	0.47 0.66 0.41 0.39 0.54 0.57	0 of 18
S25V/S26E/L30M/Y31M/E32G/W56H/T59V/S62Q	0.50 0.42 0.41 0.22 0.26 0.40	3 of 18 (2.33)
S25L/S26M/Q27G/V29M/L30M/S33Q/N35M/W56Q/T59V/E61M	0.62 0.16 0.45 0.47 0.45 0.38	2 of 18 (2.80)
S25T/S26Y/Q27V/V29S/W56Q/T59E	-0.21 0.40 0.10 -0.20 0.06 -0.20	0 of 18

The first 4 entries again:

changes	log10 Kd, replicates	signal with controls
S25M/S28E/V29A/L30M/Y31M/E32L/K36W/W56Q/S62Q	0.17 0.04 0.10 -0.06 -0.03 0.27	1 of 18 (3.08)
S25M/E32Q/K36S/S38A/W56Q/T59Q	0.36 0.14 0.08 -0.02 -0.09 0.23	1 of 18 (2.20)
S25L/S28L/V29M/W56E/E61L/Q96D	0.06 0.01 -0.05 -0.19 -0.15 -0.03	0 of 18
S25C/S26Y/V29Q/L30D/S38A/W56N/T59Q	-0.31 -0.22 -0.27 -0.44 -0.34 -0.10	0 of 18

A sequence measured in both rounds can read differently, since the two assays cover different ranges. Background: pairings of all light chain designs with three empty control strains gave a value in 4% of cases (median 2.64, 5th percentile 1.59). Values in that range, when seen in few replicates, are hard to tell from nonspecific mating. The control count says in how many pairings with the empty strains this scFv gave a signal, with their mean in brackets. In the paper, a design with two or fewer of six values counts as a poor binder.